# Experimental vapor pressure values from OPERA 2.9

Values as listed in the OPERA 2.9 repository of K. Mansouri.

Vapor pressures (log10 mmHg) refer to near room temperature, 15 to 30 °C; higher is more volatile. "n/a" marks a cell with nothing listed here.

compound | name | log vapor pressure (log10 mmHg)
C=C[Si](ON=C(C)CC)(ON=C(C)CC)ON=C(C)CC | 2-Butanone, O,O',O''-(ethenylsilylidyne)trioxime | -3.727
CCC(C)c1ccccc1O (stereo not given) | 2-(Butan-2-yl)phenol | -1.651
O=C1/C(=C2/Nc3ccc(Br)cc3C2=O)Nc2ccccc21 | Bromindigo R | -6.523
C=C(C)C(=O)OC(C)(C)C | tert-Butyl methacrylate | 0.745
CN(C)Cc1ccccc1 | N,N-Dimethylbenzylamine | 0.29
FC(F)(F)C(F)(F)C(F)(F)I | Heptafluoropropyl iodide | 2.564
CO[Si](CCCNC1CCCCC1)(OC)OC | Geniosil GF 92 | -2.799
C=CC(=O)OCCCCCCCCCCCC | Lauryl acrylate | -4.124
O=S(=O)(Oc1ccc(Cl)cc1Cl)c1ccccc1 | 2,4-Dichlorophenyl benzenesulfonate | -3.569
COC(=O)C(N)CO.Cl (stereo not given) | Methyl serinate--hydrogen chloride (1/1) | -4.546
CNC(N)=O | Methylurea | -4.548
O=S(=O)(O)CCC(F)(F)C(F)(F)C(F)(F)C(F)(F)C(F)(F)C(F)(F)F | 6:2 Fluorotelomer sulfonic acid | -1.833
CC1(C)C(=CC=C2C(Cl)=C(C=CC3=[N+](CCCCS(=O)(=O)[O-])c4ccc5ccccc5c4C3(C)C)c3ccccc32)N(CCCCS(=O)(=O)O)c2ccc3ccccc3c21 | n/a | -8.201
CCB(CC)CC | Triethylborane | 1.701
CO[Si](CCCNCCNCCN)(OC)OC | n/a | -3.949
CN(C)C(N)=O | 1,1-Dimethylurea | -4.346
CC(CCN(C)C)N(C)C (stereo not given) | N,N,N',N'-Tetramethyl-1,3-butanediamine | 0.215
FC(F)(F)c1nc2c(Cl)c(Cl)ccc2[nH]1 | Chlorflurazole | -4.398
CCCCCCC(CCCC)C(=O)O (stereo not given) | Octanoic acid, 2-butyl- | -4.268
N=C(c1ccccc1)c1ccccc1 | 1,1-Diphenylmethanimine | -3.668
CCCCCCCCCCCCCCCCCC[Si](C)(C)Cl | Silane, chlorodimethyloctadecyl- | -3.648
CNCCC[Si](OC)(OC)OC | 1-Propanamine, N-methyl-3-(trimethoxysilyl)- | -0.523
[Na+].c1ccc2[n-]nnc2c1 | Sodium 1H-benzotriazolide | -5.084
C=CCSSCCC | Allyl propyl disulfide | -0.426
COCC(C)N (stereo not given) | 1-Methoxy-2-propylamine | 1.519
Cc1ccc(S(N)(=O)=O)cc1 | 4-Toluenesulfonamide | -5.669
N=C(N)NCCC[C@H](N)C(=O)O | L-Arginine | -8.857
CCC(C)C=O (stereo not given) | 2-Methylbutanal | 1.756
CCO[Si](OCC)(OCC)N(CC)CC | Silanamine, 1,1,1-triethoxy-N,N-diethyl- | -0.296
C=C(C)C(=O)OCCOCCOCCOCCOC(=O)C(=C)C | Tetraethyleneglycol dimethacrylate | -5.603
C/C=C(\C)C(=O)OCCC(C)CCC=C(C)C (stereo partly drawn) | Citronellyl tiglate | -2.075
O=C(O)CC(=O)C(=O)O | 2-Oxobutanedioic acid | -4.498
CC(C)[C@H](N)C(=O)O | L-Valine | -7.467
CCCC(=O)C(C)=O | 2,3-Hexanedione | -0.301
CCCCOC(C)COCC(C)O (stereo not given) | 1-(2-Butoxypropoxy)propan-2-ol | -1.222
C=CCCCCO | 5-Hexen-1-ol | 1.519
CO[Si](C)(C)CCCNCCN | N-(3-(Methoxydimethylsilyl)propyl)ethylenediamine | -1.648
CC(CC(=O)[O-])CC(C)(C)C.CC(CC(=O)[O-])CC(C)(C)C.[Sn+2] (stereo not given) | Tin(2+) bis(3,5,5-trimethylhexanoate) | -2.824
CC(C)c1cc(C(C)C)cc(C(C)C)c1 | 1,3,5-Triisopropylbenzene | -2.319
O=C=NCC1CCCC(CN=C=O)C1 (stereo not given) | 1,3-Bis(isocyanatomethyl)cyclohexane | -2.824

Extract of 6 entries:

compound | name | log vapor pressure (log10 mmHg)
CO[Si](C)(C)CCCNCCN | N-(3-(Methoxydimethylsilyl)propyl)ethylenediamine | -1.648
CC(CC(=O)[O-])CC(C)(C)C.CC(CC(=O)[O-])CC(C)(C)C.[Sn+2] (stereo not given) | Tin(2+) bis(3,5,5-trimethylhexanoate) | -2.824
O=C(O)CC(=O)C(=O)O | 2-Oxobutanedioic acid | -4.498
C=C(C)C(=O)OCCOCCOCCOCCOC(=O)C(=C)C | Tetraethyleneglycol dimethacrylate | -5.603
CN(C)Cc1ccccc1 | N,N-Dimethylbenzylamine | 0.29
CCCC(=O)C(C)=O | 2,3-Hexanedione | -0.301

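The numbers are reported measurements, compiled and curated for the OPERA QSAR suite. One number stands for a compound and property, with no spread given. How each value was measured is not recorded, so precision varies. Where a salt, mixture or single isomer is drawn, the source does not say that exactly this form was tested. Some upstream entries may be estimates or bounds without being marked so.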